This note sets out measurements from publication PMC6143434 (Molecular neurobiology, 2018).

By UniProt entry, the sequences of proteins in these tests, tags left out.
UniProt P08913, whole entry: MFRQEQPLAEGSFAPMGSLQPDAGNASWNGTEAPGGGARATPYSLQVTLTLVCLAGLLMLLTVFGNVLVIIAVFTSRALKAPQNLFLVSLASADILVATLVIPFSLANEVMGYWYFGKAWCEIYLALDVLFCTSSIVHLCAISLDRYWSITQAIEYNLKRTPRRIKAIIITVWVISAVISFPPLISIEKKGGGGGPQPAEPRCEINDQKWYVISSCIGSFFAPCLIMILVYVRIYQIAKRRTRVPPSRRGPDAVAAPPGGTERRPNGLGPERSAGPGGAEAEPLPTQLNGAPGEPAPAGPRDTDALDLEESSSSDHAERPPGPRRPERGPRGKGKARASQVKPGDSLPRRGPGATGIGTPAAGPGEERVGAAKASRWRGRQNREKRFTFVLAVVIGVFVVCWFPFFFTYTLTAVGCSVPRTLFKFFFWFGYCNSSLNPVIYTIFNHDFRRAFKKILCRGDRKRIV
UniProt P18825, whole entry: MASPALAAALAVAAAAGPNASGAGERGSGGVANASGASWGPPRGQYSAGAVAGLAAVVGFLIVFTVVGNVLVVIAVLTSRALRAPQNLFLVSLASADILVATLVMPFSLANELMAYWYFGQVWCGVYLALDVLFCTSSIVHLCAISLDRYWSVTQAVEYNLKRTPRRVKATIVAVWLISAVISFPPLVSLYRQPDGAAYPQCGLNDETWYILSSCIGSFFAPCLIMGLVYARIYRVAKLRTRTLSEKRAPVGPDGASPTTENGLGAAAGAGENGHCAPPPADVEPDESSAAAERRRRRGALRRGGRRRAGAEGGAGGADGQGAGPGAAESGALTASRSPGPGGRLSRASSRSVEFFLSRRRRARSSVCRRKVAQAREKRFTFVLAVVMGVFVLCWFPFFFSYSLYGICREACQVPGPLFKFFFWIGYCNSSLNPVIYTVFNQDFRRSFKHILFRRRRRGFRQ

“And” between values parts separate entries of the source, which are not always exact repeats. Equal values may be shown once. Where a name gives a salt, the structure may show the parent alone. Read-outs that look alike come from different tables or passages of the source.

Broadly, the EC50 is the concentration needed to bring the measured effect to its halfway point.

Holding throughout (format): cell-based
The target in test [1] is T1, α2A adrenoceptor (Homo sapiens, UniProt P08913). Nature of the test: ERK1/2 phosphorylation in CHO cells transfected with α2A-RLuc8 receptor.
Test [2] has as its target T1, α2A adrenoceptor. Nature of the test: DMR label-free assay in CHO cells transfected with α2A-RLuc8 receptor.
Test [3] deals with T1, α2A adrenoceptor. Nature of the test: G protein activation BRET assay in transfected HEK-293T cells. A general note: BRET reads energy transfer from a luciferase to a nearby fluorophore.
The target in the next test is α2C adrenoceptor (Homo sapiens, UniProt P18825). Described as above.
The mark [4] stands for this setting: Potency (EC50) G protein activation.

In the case of `CCCN1CCC[C@@H]2Cc3n[nH]cc3C[C@H]21` [Quinpirole, (-) quinpirole hydrochloride], the “MAPK activation (ERK1/2 phosphorylation)” value at α2A adrenoceptor [1] is “able to produce MAPK activation”. Further, on α2A adrenoceptor [2], the DMR response result was “significant response”. Moreover, the “Efficacy (Emax) G protein activation” value at α2A adrenoceptor [3] is 78 ± 9 percentage of NE values and 72 ± 8 percentage of NE values and 70 ± 2 percentage of NE values and 47 ± 8 percentage of NE values and 40 ± 9 percentage of NE values. The EC50 was 1.3 µM and 820 nM and 700 nM (2×) and 1 µM on α2A adrenoceptor [3] (setting [4]); 0.1 µM at α2C adrenoceptor; 0.4 µM and 0.2 µM at α2C adrenoceptor (setting [4]); 0.23 ± 0.05 µM at α2C adrenoceptor (read-out: Potency (EC50) G protein activation).
